Screening results deposited in PubChem BioAssay by National Center for Advancing Translational Sciences (NCATS).
TDP1 cell CPT – growth inhibition of DT40 Tdp1-/-;hTDP1 cells with camptothecin (screen for TDP1 inhibitors). 12% of 420,000 active. Potency, µM (top dose mostly 46.2 µM), inactives show top-dose activity change, negative = growth inhibition, actives largely listed as inhibitors. AID 686979. chicken DT40 Tdp1-/-;hTDP1 cells + 20 nM CPT, ATP luminescence, 48 h; note: potency is the fitted concentration of half-maximal effect; % is set by controls: 0 for no effect and ±100 for the full control effect; nearly all actives have a fitted effect of over 55% in size
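Cell growth measured by CellTiter-Glo luminescence after a minimum 48 h, 37 C compound exposure with 20 nM CPT in Tdp1-knockout DT40 cells stably expressing hTDP1, seeded 400/well; qHTS titration format.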
miR-21 reporter – miR-21 reporter, rising signal. 340,000 tested, under 10 active. Potency, µM (highest dose often 38.3 µM), for the others: at the highest dose reporter change, positive = more light. HeLa miR-21 FLuc reporter, luciferase, 48 h. AID 2288; active = well fitted rising curve with a large enough effect; inconclusive = small, poorly fitted or top-dose-only effect; inactive = no such curve, though single readings can be large or run the other way;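 further: % of control where 0% means no effect; miR-21 action dims this reporter so a rising signal means less miR-21 action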
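Luminescence from a firefly luciferase reporter carrying a miR-21 binding site downstream, stably expressed under a CMV promoter in HeLa cells that make miR-21 endogenously, reports miRNA modulation after 48 h compound exposure up to approximately 40uM final.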
uPA generation – blocks generation of uPA at the cell surface; cell surface uPA generation assay, qHTS; Potency, µM (doses to about 38.3 µM), for the others: at the top dose activity change, negative = inhibition, usual class: inhibitors; 0.31% of 330,000 active; AID 540303; active = well fitted inhibition curve with a large enough effect; inconclusive = small, poorly fitted or top-dose-only effect; inactive = no such curve, though single readings can be large or run the other way; tested in mouse RAW 264.7 cells; note: potency is the fitted concentration of half-maximal effect; % is set by controls: 0 for no effect and ±100 for the full control effect; nearly all actives have a fitted effect of over 55% in size
DT40 TDP1 no CPT – qHTS for Inhibitors of human tyrosyl-DNA phosphodiesterase 1 (TDP1): qHTS in cells in absence of CPT; Potency, µM (series often up to 46.2 µM), without a hit: at the highest dose activity change, negative = growth inhibition, most hits filed as inhibitors; 15% of 420,000 active; DT40 Tdp1-/- hTDP1 cells, no CPT, ATP luminescence, 48 h; note: potency is the fitted concentration of half-maximal effect; % is set by controls: 0 for no effect and ±100 for the full control effect; nearly all actives have a fitted effect of over 55% in size
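Chicken DT40 Tdp1-/- cells stably complemented with human TDP1 were seeded at 400 cells/well with DMSO in place of 20 nM camptothecin. After compound pinning, cells grew at least 48 hr at 37 °C; viability read by CellTiter-Glo luminescence.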
TDP1 block – inhibitors of human tyrosyl-DNA phosphodiesterase TDP1. Q9NUW8. recombinant TDP1, AlphaScreen DNA substrate cleavage. Potency, µM (highest dose often 130 µM), without a hit: at the highest dose activity change, negative = inhibition, actives largely listed as inhibitors. 0.28% of 350,000 active. AID 485290; note: potency is the fitted concentration of half-maximal effect; % is set by controls: 0 for no effect and ±100 for the full control effect; nearly all actives have a fitted effect of over 40% in size
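AlphaScreen read-out: signal falls as enzyme removes the 3' tyrosine-FITC from a 5'-biotinylated DNA oligo (15 nM, 5 min, RT). Enzyme was E. coli-made recombinant Tdp1 at 1 nM, exposed to compound for 15 min beforehand; beads 10 ug/ml, 10 min.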
* = called active by the depositor; ? = inconclusive; . = no result given; ! = not confirmed by another sample; [ ] = remark or other dose. Shown are actives, neighbours in structure and some others; about 16% of the full set was active somewhere. Unless noted, calls come from the whole dose curve; as a rule, active = well fitted curve in the direction sought with a large enough effect; inconclusive = small, poorly fitted or top-dose-only effect, or another doubt; inactive = no such curve, though single readings can be large; an effect the other way counts as inactive or inconclusive.

SMILES | TDP1 cell CPT | miR-21 reporter | uPA generation | DT40 TDP1 no CPT | TDP1 block
CC(OC(=O)CN1C(=O)NC2(CCCC2)C1=O)C(=O)c1ccccc1 (configuration not stated) | 8% | . | 4% | 6% | 2%
N#Cc1c(N)n(CCOC(=O)c2cccc([N+](=O)[O-])c2)c2nc3ccccc3nc12 | -22% | 5% | 2% | 10µM* | 7%
COCCCNC(=O)Cn1c(=O)oc2cc(S(=O)(=O)N3CC(C)CC(C)C3)ccc21 (configuration not stated) | -29% | 3% | 3% | -1% | 0%
N#C/C(=C\c1ccc(Cl)c([N+](=O)[O-])c1)c1ccccn1 | 21µM* | 2% | -18% | 21µM* | 8%
N#C/C(=C/c1ccc(O)c(O)c1)C(=O)OC/C=C/c1ccccc1 | . | . | . | . | 22%
N#C/C(=C\c1ccc(O)c(O)c1)C(=O)Nc1ccccc1 | 24µM* | . | ? | 10µM* | 19%[56.1 µM]
CNc1ccc(/C=C(\C#N)c2ccccn2)cc1[N+](=O)[O-] | -1% | -45% | -2% | -17% | 8%
N#C/C(=C\c1cccnc1)C(=O)Nc1ccccc1 | -5% | -14% | 2% | ? | 5%
C[C@H](NC(=O)/C(C#N)=C/c1ccc(O)c(O)c1)c1ccccc1 | 19µM* | . | . | 19µM* | 11%
C[C@@H](NC(=O)/C(C#N)=C/c1ccc(O)c(O)c1)c1ccccc1 | 24µM* | . | ? | 13µM*! | 17%[56.1 µM]

Random excerpt: 2 compounds from above, in no set order.
SMILES | TDP1 cell CPT | miR-21 reporter | uPA generation | DT40 TDP1 no CPT | TDP1 block
N#C/C(=C\c1ccc(Cl)c([N+](=O)[O-])c1)c1ccccn1 | 21µM* | 2% | -18% | 21µM* | 8%
N#C/C(=C\c1cccnc1)C(=O)Nc1ccccc1 | -5% | -14% | 2% | ? | 5%

More records follow:
SMILES | TDP1 cell CPT | miR-21 reporter | uPA generation | DT40 TDP1 no CPT | TDP1 block
CC(NC(=O)/C(C#N)=C/c1ccc(OCC(=O)O)cc1)c1ccccc1 (configuration not stated) | 1% | 0% | -4% | -7% | .
N#C/C=C/N1CCC(Cc2ccccc2)CC1 | 4% | -4% | 2% | -20% | .
CC1(C(=O)NS(=O)(=O)c2ccccc2C(F)(F)F)CCN1C(=O)C1CCCCC1 (configuration not stated) | 7% | . | . | -1% | .
CC(NC(=O)/C(C#N)=C/c1ccc(Cl)c([N+](=O)[O-])c1)c1ccccc1 (configuration not stated) | 3.7µM* | ? | ? | 3.7µM* | -2%
Brc1ccc(N=C/C=C/C=C/Nc2ccc(Br)cc2)cc1 | -23% | -18% | -14% | -12% | 5%
Clc1cccc(COn2c(-c3ccc(Cl)cc3Cl)nc3ncccc32)c1 | ? | 6% | -5% | 21µM* | 3%
COc1ccc(N2CCN(C3CCCN(Cc4ccc(F)cc4Cl)C3)CC2)cc1 (configuration not stated) | ? | 2% | 4% | ? | .
CCCCN(C(=O)C1COc2ccccc2O1)c1c(N)n(CCC)c(=O)[nH]c1=O (configuration not stated) | 3% | . | 2% | 12% | -9%
Cc1ccc(Cl)cc1NC(=O)CN1C(=O)C(C)(C)c2cc(S(=O)(=O)N3CCCCC3)ccc21 | ? | 30% | . | 23µM* | 3%
Cc1ccc(S(=O)(=O)N2CCCCC2)cc1NC(=O)Cn1cnnn1 | -2% | -13% | 4% | 0% | 10%
Cc1ccc2oc(=O)c3cnn(CC(=O)Nc4ccc(Br)cc4C)c3c2c1 | 4% | 0% | . | -12% | 6%
Cc1ccc(S(=O)(=O)N2CCCCC2)cc1NC(=O)CSCC(=O)O | 16% | -6% | 6% | -12% | 5%
Cc1ccc(S(=O)(=O)N2CCCCC2)cc1NC(=O)Cn1ncc(Cl)c(Cl)c1=O | 4.6µM* | . | ? | 2.1µM* | -7%
Cc1ccc(S(=O)(=O)N2CCCCC2)cc1NC(=O)CNC(C)c1ccc(Cl)c(Cl)c1 (configuration not stated) | 15µM* | . | ? | 13µM* | 0%
Cc1cc(Br)ccc1NC(=O)CNC(=O)Cn1ncc(Cl)c(Cl)c1=O | 4.1µM* | 3% | 0% | 3.7µM* | .
Nc1ccccc1/C=C/c1ccccc1N | -12% | . | -9% | ? | .
O=C(Cn1ncc(Cl)c(Cl)c1=O)N1CCN(S(=O)(=O)c2ccc3ccccc3c2)CC1 | 2.9µM* | ? | 6% | 4.6µM* | 3%
COC(=O)CC1COc2ccccc2N1C(=O)c1ccc(Br)cc1 (configuration not stated) | -10% | -7% | 5% | ? | 3%
COc1ccc(-c2cc(C(=O)Nc3cccc(O)c3)no2)cc1 | -28% | 20% | 5µM* | -16% | .
CC(=O)c1cccc(NC(=O)c2cc(-c3ccco3)on2)c1 | -4% | -7% | 3% | -28% | 9%
O=C(Nc1cccc(O)c1)c1cc(-c2ccco2)on1 | ? | -30% | -15% | 15µM* | 0%
O=C(CCN1CCCCC1)NNC(=S)NC(=O)c1ccc(Br)cc1 | ? | -17% | -4% | ? | 4%
O=C(CCN1CCOCC1)NNC(=S)NC(=O)c1ccc(Br)cc1 | 15µM* | -12% | 0% | 13µM* | 4%
CC(=O)NC1(C(Cl)(Cl)Cl)Oc2ccccc2O1 | -10% | -6% | -1% | -5% | -4%
C(=C\n1nnc2ccccc21)/c1ccc[nH]1 | 18µM* | . | -3% | 23µM* | .
c1ccc(-n2nnc3ccccc32)cc1 | -20% | -12% | -8% | -22% | .
COc1ccc(-c2nnc(SCc3cccc(C)c3)n2N)cc1 | -5% | -4% | 2% | 1% | 0%
CCCCCCCC[n+]1c(C)n(-c2ccccc2)c2ccc(NC(C)=O)cc21 | 0.41µM* | ? | -7% | 0.82µM* | 4%
CCOC(=O)c1c(-c2ccc(F)cc2)csc1NC(=O)CN1C(=O)NC2(CCCCC2C)C1=O (configuration not stated) | 21µM* | 3% | -5% | ? | 4%
CCOC(=O)c1c(NC(=O)CN2C(=O)NC3(CCCCCC3)C2=O)sc(C)c1-c1ccc(C)cc1 | 23µM* | 0% | -3% | 16µM* | 8%

Exported field by field: part of the list above
> O=C(Nc1cccc(O)c1)c1cc(-c2ccco2)on1
  TDP1 cell CPT: ?	miR-21 reporter: -30%	uPA generation: -15%	DT40 TDP1 no CPT: 15µM*	TDP1 block: 0%
> O=C(CCN1CCCCC1)NNC(=S)NC(=O)c1ccc(Br)cc1
  TDP1 cell CPT: ?	miR-21 reporter: -17%	uPA generation: -4%	DT40 TDP1 no CPT: ?	TDP1 block: 4%
> O=C(CCN1CCOCC1)NNC(=S)NC(=O)c1ccc(Br)cc1
  TDP1 cell CPT: 15µM*	miR-21 reporter: -12%	uPA generation: 0%	DT40 TDP1 no CPT: 13µM*	TDP1 block: 4%
> CC(=O)NC1(C(Cl)(Cl)Cl)Oc2ccccc2O1
  TDP1 cell CPT: -10%	miR-21 reporter: -6%	uPA generation: -1%	DT40 TDP1 no CPT: -5%	TDP1 block: -4%

Continued.
SMILES | TDP1 cell CPT | miR-21 reporter | uPA generation | DT40 TDP1 no CPT | TDP1 block
CCOC(=O)c1c(NC(=O)CN2C(=O)NC3(CCCCC3C)C2=O)sc(C(=O)N(C)C)c1C (configuration not stated) | 5% | . | -6% | 8% | 0%
CCOC(=O)c1c(NC(=O)CN2C(=O)NC3(CCCCC3C)C2=O)sc(C)c1C (configuration not stated) | 21µM* | -4% | -6% | 21µM* | 3%
Cc1nnc(NC(=O)c2oc3cc(C)c(C)cc3c2C)s1 | . | -8% | . | . | -4%
Cc1cc2c(s1)c1cnn(Cc3c(F)c(F)cc(F)c3F)c(=O)c1n2C | . | . | . | . | -3%
CO/N=C/C(C#N)=C/c1cc(C(=O)c2ccccc2)cn1C | -20% | -2% | 0% | 21µM* | 2%
COc1ccccc1/C=C(\C#N)C(=O)c1cccn1C | -3% | 1% | 0% | -12% | .
